Like-named read-outs stand apart in the source and are kept apart here.
How the values were obtained:
α7GlyR Y115F G175A = biological target: T1, α7GlyR Y115F G175A (Homo sapiens, UniProt P36544, G175A/Y115F); experiment: Agonist potency at chimeric channel; format: cell-based; settings: Table 8
T1 construct: expressed in transfected cells

Sequences of proteins named here, by UniProt entry; tags and fusion partners are left off. A line that says so, or that is headed by a name, gives the form on record, which may keep a tag or linker.
UniProt P36544, with tags, fused parts or gaps Y115F/G175A limits assumed: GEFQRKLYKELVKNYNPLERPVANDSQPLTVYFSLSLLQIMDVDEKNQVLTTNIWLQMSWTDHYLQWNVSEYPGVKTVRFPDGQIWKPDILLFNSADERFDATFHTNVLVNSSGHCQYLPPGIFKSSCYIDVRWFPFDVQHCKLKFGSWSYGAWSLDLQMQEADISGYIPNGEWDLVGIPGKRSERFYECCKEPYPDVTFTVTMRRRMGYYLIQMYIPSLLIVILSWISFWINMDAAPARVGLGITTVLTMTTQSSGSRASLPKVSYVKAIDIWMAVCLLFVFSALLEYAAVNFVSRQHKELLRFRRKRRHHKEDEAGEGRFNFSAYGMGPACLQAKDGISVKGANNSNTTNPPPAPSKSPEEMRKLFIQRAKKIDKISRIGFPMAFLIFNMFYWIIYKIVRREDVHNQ
UniProt P36544, with tags, fused parts or gaps G175K/Y210F: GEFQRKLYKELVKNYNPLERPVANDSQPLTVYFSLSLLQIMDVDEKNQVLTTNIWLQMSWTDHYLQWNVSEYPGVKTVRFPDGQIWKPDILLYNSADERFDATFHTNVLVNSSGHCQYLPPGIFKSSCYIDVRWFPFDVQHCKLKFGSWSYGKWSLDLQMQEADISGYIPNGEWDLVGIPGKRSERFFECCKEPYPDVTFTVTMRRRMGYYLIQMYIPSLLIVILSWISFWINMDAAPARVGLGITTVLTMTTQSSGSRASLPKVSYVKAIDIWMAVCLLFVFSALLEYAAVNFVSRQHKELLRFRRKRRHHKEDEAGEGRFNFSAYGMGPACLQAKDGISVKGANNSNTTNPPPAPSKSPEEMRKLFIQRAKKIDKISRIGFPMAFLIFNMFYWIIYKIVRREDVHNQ
UniProt P36544, with tags, fused parts or gaps L131M limits assumed: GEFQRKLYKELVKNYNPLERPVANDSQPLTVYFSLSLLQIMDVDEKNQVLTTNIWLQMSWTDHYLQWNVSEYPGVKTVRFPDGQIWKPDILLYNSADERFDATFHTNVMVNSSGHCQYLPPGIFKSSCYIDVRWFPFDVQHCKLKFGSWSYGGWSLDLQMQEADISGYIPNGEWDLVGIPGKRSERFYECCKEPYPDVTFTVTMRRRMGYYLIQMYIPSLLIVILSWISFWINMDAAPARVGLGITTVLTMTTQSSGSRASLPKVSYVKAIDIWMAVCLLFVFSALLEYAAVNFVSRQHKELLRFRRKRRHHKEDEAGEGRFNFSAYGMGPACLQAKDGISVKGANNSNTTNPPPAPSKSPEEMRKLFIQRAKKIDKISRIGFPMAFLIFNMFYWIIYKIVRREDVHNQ
UniProt P36544, with tags, fused parts or gaps Q79S: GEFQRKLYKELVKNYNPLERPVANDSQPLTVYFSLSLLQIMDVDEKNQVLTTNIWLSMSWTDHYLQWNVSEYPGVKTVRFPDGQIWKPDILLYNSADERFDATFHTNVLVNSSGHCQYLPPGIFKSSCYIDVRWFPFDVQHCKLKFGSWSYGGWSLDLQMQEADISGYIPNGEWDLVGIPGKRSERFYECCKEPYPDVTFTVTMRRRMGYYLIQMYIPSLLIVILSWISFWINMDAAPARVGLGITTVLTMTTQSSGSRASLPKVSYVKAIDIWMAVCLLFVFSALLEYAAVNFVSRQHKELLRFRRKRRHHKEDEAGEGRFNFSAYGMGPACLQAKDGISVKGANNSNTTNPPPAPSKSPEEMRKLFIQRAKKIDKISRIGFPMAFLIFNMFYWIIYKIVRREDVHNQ
UniProt P36544, with tags, fused parts or gaps L131A limits assumed: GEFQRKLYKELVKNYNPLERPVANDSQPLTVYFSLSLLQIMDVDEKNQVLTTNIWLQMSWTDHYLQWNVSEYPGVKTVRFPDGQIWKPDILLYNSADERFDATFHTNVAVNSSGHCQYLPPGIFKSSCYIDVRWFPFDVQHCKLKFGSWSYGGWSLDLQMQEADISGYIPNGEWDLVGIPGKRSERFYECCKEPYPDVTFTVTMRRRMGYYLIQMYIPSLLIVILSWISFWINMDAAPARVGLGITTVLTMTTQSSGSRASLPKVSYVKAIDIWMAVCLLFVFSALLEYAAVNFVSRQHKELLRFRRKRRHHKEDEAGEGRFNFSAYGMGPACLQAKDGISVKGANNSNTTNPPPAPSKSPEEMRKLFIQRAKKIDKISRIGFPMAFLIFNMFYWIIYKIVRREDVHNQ
UniProt P36544, with tags, fused parts or gaps T225I/M226I limits assumed: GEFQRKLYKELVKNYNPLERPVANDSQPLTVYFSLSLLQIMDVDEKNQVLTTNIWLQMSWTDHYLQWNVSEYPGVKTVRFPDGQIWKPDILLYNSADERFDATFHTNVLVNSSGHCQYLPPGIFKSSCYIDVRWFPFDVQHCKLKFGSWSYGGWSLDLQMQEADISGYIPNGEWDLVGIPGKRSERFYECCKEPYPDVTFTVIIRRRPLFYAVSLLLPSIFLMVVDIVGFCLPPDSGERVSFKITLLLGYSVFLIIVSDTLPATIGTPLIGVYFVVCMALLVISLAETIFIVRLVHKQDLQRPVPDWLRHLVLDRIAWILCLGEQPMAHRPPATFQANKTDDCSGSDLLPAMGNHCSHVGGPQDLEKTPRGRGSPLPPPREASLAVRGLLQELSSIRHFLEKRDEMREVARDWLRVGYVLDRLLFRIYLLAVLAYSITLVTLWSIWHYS
UniProt P36544, with tags, fused parts or gaps Y115F/L131M: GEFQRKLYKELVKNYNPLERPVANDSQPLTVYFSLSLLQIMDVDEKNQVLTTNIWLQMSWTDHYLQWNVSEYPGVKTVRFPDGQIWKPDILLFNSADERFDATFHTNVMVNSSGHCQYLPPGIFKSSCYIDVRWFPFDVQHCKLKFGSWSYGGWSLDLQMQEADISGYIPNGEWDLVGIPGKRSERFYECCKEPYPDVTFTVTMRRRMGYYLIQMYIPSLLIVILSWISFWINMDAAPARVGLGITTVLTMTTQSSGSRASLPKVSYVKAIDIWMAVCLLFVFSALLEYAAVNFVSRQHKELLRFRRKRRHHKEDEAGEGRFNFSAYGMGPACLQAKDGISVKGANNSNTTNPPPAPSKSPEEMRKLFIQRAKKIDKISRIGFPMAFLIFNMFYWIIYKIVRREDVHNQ
UniProt P36544, with tags, fused parts or gaps Y115F/G175V limits assumed: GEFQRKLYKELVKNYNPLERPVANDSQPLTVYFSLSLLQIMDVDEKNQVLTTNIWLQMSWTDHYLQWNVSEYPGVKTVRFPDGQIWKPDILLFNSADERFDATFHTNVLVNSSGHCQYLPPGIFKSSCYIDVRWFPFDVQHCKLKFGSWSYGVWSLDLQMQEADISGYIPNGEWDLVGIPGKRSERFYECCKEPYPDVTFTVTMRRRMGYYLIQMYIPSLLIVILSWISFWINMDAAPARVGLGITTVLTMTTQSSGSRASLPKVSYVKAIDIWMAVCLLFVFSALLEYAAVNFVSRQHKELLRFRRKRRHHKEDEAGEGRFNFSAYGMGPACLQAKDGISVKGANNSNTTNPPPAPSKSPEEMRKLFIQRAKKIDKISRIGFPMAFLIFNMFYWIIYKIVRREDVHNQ
UniProt P36544, with tags, fused parts or gaps L131Q limits assumed: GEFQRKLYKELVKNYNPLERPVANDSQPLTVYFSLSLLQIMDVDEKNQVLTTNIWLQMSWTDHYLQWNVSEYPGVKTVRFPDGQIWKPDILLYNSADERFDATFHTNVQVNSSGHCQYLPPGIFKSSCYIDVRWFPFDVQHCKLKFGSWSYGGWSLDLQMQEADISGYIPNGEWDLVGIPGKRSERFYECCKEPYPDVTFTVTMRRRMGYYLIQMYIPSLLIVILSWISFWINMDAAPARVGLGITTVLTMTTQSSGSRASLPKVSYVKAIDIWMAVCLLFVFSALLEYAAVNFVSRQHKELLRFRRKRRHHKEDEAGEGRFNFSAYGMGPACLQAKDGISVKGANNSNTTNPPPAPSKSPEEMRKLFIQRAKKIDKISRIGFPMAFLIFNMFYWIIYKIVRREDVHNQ
UniProt P36544, with tags, fused parts or gaps Y115F/L141F/G175K limits assumed: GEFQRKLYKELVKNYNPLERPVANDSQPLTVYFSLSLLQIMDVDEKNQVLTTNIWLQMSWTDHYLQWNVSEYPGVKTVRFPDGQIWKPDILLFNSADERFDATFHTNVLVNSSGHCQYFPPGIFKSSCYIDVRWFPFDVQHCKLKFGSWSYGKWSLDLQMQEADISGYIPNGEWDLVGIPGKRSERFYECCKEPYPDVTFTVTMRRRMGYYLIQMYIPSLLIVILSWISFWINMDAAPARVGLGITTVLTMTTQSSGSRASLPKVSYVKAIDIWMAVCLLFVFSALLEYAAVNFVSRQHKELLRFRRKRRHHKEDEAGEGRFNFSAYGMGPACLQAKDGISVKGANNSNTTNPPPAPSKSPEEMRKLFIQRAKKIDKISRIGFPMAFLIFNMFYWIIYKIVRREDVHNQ
UniProt P36544, with tags, fused parts or gaps W77F/Q79G/G175K: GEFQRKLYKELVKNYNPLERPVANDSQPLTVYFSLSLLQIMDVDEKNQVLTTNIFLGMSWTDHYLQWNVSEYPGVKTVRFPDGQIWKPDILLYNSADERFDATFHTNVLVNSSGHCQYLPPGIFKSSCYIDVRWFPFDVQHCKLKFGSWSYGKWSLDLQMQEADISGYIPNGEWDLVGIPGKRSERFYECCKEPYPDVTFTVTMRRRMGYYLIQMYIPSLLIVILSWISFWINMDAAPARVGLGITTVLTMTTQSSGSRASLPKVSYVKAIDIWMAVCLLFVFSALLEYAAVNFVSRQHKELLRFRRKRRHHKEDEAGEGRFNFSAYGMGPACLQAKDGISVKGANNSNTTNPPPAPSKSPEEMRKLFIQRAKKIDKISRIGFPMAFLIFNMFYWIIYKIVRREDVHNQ
UniProt P36544, with tags, fused parts or gaps R27D/E41R/Q79G/Y115F/G175K limits assumed: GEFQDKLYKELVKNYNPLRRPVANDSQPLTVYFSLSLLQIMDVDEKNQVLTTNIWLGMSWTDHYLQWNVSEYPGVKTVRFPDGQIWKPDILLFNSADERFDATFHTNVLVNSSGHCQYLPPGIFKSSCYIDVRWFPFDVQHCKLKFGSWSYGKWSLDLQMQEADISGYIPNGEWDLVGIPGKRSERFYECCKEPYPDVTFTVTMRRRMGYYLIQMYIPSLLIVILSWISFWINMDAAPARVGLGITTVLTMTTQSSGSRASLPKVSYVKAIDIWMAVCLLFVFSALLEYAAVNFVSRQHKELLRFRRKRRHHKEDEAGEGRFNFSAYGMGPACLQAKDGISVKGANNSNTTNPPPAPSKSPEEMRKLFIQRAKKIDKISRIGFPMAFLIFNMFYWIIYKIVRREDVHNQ
UniProt P36544, with tags, fused parts or gaps Y115F/G175F limits assumed: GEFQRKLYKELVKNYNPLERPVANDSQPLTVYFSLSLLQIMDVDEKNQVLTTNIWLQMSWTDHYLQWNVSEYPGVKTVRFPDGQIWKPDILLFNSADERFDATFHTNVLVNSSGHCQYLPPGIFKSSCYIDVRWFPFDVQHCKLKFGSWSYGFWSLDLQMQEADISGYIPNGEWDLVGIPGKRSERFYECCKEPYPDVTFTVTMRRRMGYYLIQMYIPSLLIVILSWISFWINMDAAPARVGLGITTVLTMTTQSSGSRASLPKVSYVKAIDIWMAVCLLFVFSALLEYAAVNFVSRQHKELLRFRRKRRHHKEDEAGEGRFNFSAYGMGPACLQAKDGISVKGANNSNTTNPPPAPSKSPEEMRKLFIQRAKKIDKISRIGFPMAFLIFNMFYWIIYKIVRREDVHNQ
UniProt P36544, with tags, fused parts or gaps Q79A: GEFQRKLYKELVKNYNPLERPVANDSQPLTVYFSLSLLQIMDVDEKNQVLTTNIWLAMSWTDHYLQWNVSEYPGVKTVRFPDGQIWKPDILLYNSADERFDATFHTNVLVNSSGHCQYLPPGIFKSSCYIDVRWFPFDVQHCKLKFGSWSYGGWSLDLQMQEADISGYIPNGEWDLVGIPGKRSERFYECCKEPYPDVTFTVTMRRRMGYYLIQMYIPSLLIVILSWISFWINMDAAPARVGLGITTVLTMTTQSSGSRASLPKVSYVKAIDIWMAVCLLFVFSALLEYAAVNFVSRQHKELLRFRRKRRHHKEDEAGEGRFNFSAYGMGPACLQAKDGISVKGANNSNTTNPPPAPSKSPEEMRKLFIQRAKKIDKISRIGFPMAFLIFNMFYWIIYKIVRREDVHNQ
UniProt P36544, with tags, fused parts or gaps Y115F/G175R limits assumed: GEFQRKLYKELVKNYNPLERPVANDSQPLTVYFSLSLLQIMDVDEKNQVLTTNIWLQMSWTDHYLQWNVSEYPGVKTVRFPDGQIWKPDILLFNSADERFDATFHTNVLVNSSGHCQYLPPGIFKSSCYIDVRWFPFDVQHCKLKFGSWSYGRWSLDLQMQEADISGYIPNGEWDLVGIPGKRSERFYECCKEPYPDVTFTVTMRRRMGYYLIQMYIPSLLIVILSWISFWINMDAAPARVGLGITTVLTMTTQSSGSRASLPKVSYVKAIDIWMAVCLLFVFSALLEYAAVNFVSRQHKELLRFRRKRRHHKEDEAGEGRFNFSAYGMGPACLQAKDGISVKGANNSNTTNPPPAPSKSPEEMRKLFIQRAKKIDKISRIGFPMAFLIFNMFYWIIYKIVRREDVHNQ
UniProt P36544, with tags, fused parts or gaps Q79G/Y115F/G175K: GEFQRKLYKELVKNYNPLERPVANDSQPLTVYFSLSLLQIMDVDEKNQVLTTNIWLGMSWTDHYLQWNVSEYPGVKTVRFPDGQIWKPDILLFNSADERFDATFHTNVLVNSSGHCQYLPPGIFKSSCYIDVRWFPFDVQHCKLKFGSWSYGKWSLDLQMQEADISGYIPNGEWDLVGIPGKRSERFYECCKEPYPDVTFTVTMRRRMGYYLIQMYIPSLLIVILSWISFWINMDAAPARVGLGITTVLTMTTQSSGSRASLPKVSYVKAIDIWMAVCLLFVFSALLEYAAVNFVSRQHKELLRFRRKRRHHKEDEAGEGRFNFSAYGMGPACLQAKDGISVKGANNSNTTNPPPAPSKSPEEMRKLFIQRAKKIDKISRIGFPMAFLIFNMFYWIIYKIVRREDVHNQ

α7GlyR G175K Y210F = biological target: T2, α7GlyR G175K Y210F (Homo sapiens, UniProt P36544, G175K/Y210F); experiment: Agonist potency at chimeric channel; format: cell-based; settings: Table 5
T2 construct: expressed in transfected cells

α7^L131M-GlyR = biological target: T3, α7^L131M-GlyR (Homo sapiens, UniProt P36544, L131M); format: cell-based; settings: α7GlyR L131M; read-out: Agonist potency
T3 construct: expressed in transfected cells

α7^Q79S-GlyR = biological target: T4, α7^Q79S-GlyR (Homo sapiens, UniProt P36544, Q79S); format: cell-based; settings: HEK cells; Table 2; read-out: Mean EC50 and SEM in parentheses
T4 construct: expressed in transfected cells; host or cells: HEK cells

α7^L131A-GlyR = biological target: T5, α7^L131A-GlyR (Homo sapiens, UniProt P36544, L131A); format: cell-based; settings: α7GlyR L131A; read-out: Agonist potency
T5 construct: expressed in transfected cells

α7-5HT3 [1] = biological target: T6, α7-5HT3 (Homo sapiens, UniProt P36544, M226I/T225I)
α7GlyR Y115F L131M = biological target: T7, α7GlyR Y115F L131M (Homo sapiens, UniProt P36544, L131M/Y115F); format: cell-based; settings: read-out: Agonist potency
T7 construct: expressed in transfected cells

α7GlyR Y115F G175V = biological target: T8, α7GlyR Y115F G175V (Homo sapiens, UniProt P36544, G175V/Y115F); experiment: Agonist potency at chimeric channel; format: cell-based; settings: Table 8
T8 construct: expressed in transfected cells

α7^L131Q-GlyR = biological target: T9, α7^L131Q-GlyR (Homo sapiens, UniProt P36544, L131Q); format: cell-based; settings: α7GlyR L131Q; read-out: Agonist potency
T9 construct: expressed in transfected cells

α7GlyR Y115F G175K L141F = biological target: T10, α7GlyR Y115F G175K L141F (Homo sapiens, UniProt P36544, G175K/L141F/Y115F); experiment: Agonist potency at chimeric channel; format: cell-based; settings: Table 5
T10 construct: expressed in transfected cells

α7GlyR W77F Q79G G175K = biological target: T11, α7GlyR W77F Q79G G175K (Homo sapiens, UniProt P36544, G175K/Q79G/W77F); experiment: Agonist potency at chimeric channel; format: cell-based; settings: Table 5
T11 construct: expressed in transfected cells

[2] = biological target: T12, α7GlyR Q79G G175K Y115F R27D E41R (Homo sapiens, UniProt P36544, E41R/G175K/Q79G/R27D/Y115F); experiment: cell-based
T12 construct: expressed in transfected cells

α7GlyR Y115F G175F = biological target: T13, α7GlyR Y115F G175F (Homo sapiens, UniProt P36544, G175F/Y115F); experiment: Agonist potency at chimeric channel; format: cell-based; settings: Table 8
T13 construct: expressed in transfected cells

α7^Q79A-GlyR = biological target: T14, α7^Q79A-GlyR (Homo sapiens, UniProt P36544, Q79A); format: cell-based; settings: HEK cells; Table 2; read-out: Mean EC50 and SEM in parentheses
T14 construct: expressed in transfected cells; host or cells: HEK cells

α7GlyR Y115F G175R = biological target: T15, α7GlyR Y115F G175R (Homo sapiens, UniProt P36544, G175R/Y115F); experiment: Agonist potency at chimeric channel; format: cell-based; settings: Table 8
T15 construct: expressed in transfected cells

α7GlyR Q79G G175K Y115F = biological target: T16, α7GlyR Q79G G175K Y115F (Homo sapiens, UniProt P36544, G175K/Q79G/Y115F); experiment: Agonist potency at chimeric channel; format: cell-based; settings: Table 5
T16 construct: expressed in transfected cells

α7GlyR Q79G G175K = biological target: T17, α7GlyR Q79G G175K (Homo sapiens, UniProt P36544, G175K/Q79G); experiment: Agonist potency at chimeric channel; format: cell-based; settings: Table 5
T17 construct: expressed in transfected cells

α7GlyR Y115F G175K = biological target: T18, α7GlyR Y115F G175K (Homo sapiens, UniProt P36544, G175K/Y115F); experiment: Agonist potency at chimeric channel; format: cell-based; settings: Table 5
T18 construct: expressed in transfected cells

α7GlyR W77F G175K = biological target: T19, α7GlyR W77F G175K (Homo sapiens, UniProt P36544, G175K/W77F); experiment: Agonist potency at chimeric channel; format: cell-based; settings: Table 5
T19 construct: expressed in transfected cells

α7^L131F-GlyR = biological target: T20, α7^L131F-GlyR (Homo sapiens, UniProt P36544, L131F); format: cell-based; settings: α7GlyR L131F; read-out: Agonist potency
T20 construct: expressed in transfected cells

α7-5HT3 [3] = biological target: T6, α7-5HT3; settings: read-out: Mean EC50; HEK cells; Table 1
α7GlyR G175K = biological target: T21, α7GlyR G175K (Homo sapiens, UniProt P36544, G175K); experiment: Agonist potency at chimeric channel; format: cell-based; settings: Table 5
T21 construct: expressed in transfected cells

α7GlyR Y115F G175M = biological target: T22, α7GlyR Y115F G175M (Homo sapiens, UniProt P36544, G175M/Y115F); experiment: Agonist potency at chimeric channel; format: cell-based; settings: Table 8
T22 construct: expressed in transfected cells

[4] = biological target: T23, α7GlyR W77F Q79G Y115F G175K (Homo sapiens, UniProt P36544, G175K/Q79G/W77F/Y115F); experiment: Agonist potency at chimeric channel; format: cell-based; settings: Table 5
T23 construct: expressed in transfected cells

[5] = biological target: T24, α7GlyR Q79G Y115F G175K Y210F (Homo sapiens, UniProt P36544, G175K/Q79G/Y115F/Y210F); experiment: Agonist potency at chimeric channel; format: cell-based; settings: Table 5
T24 construct: expressed in transfected cells

α7GlyR Y115F G175S = biological target: T25, α7GlyR Y115F G175S (Homo sapiens, UniProt P36544, G175S/Y115F); experiment: Agonist potency at chimeric channel; format: cell-based; settings: Table 8
T25 construct: expressed in transfected cells

α7-GlyR^A298G = biological target: T26, α7-GlyR^A298G (Homo sapiens, UniProt P36544, A298G); format: cell-based; settings: HEK cells; Table 2; read-out: Mean EC50 and SEM in parentheses
T26 construct: expressed in transfected cells; host or cells: HEK cells

α7GlyR W77F G175K Y210F = biological target: T27, α7GlyR W77F G175K Y210F (Homo sapiens, UniProt P36544, G175K/W77F/Y210F); experiment: Agonist potency at chimeric channel; format: cell-based; settings: Table 5
T27 construct: expressed in transfected cells

[6] = biological target: T28, α7GlyR Q79G Y115F G175K K322L (Homo sapiens, UniProt P36544, G175K/Q79G/Y115F); experiment: Agonist potency at chimeric channel; format: cell-based; settings: Table 5
T28 construct: expressed in transfected cells

α7^Q79G-5HT3 = biological target: T29, α7^Q79G-5HT3 (Homo sapiens, UniProt P36544, M226I/Q79G/T225I); format: cell-based, human α7 nAChR LBD, murine 5HT3 IPD; settings: HEK cells; Table 1
T29 construct: expressed in transfected cells; host or cells: HEK cells

α7^L131N-GlyR = biological target: T30, α7^L131N-GlyR (Homo sapiens, UniProt P36544, L131N); format: cell-based; settings: α7GlyR L131N; read-out: Agonist potency
T30 construct: expressed in transfected cells

c1cnc2cc3c(cc2n1)[C@@H]1CNC[C@H]3C1 [Varenicline]
EC50 (α7GlyR Y115F G175A): 5.9 µM
EC50 (α7GlyR G175K Y210F): 4.3 µM
EC50 (α7^L131M-GlyR): 0.53 µM
EC50 (α7^Q79S-GlyR): 0.28 µM
EC50 (α7^L131A-GlyR): 0.082 µM
EC50 (α7-5HT3 [1]): 0.92 µM
EC50 (α7GlyR Y115F L131M): > 100 µM
EC50 (α7GlyR Y115F G175V): 4.6 µM
EC50 (α7^L131Q-GlyR): 0.72 µM
EC50 (α7GlyR Y115F G175K L141F): > 8.1 µM
EC50 (α7GlyR W77F Q79G G175K): 3.3 µM
EC50 [2]: 4.9 µM
EC50 (α7GlyR Y115F G175F): 13.6 µM
EC50 (α7^Q79A-GlyR): 0.48 µM
EC50 (α7GlyR Y115F G175R): 7.6 µM
EC50 (α7GlyR Q79G G175K Y115F): > 10 µM
EC50 (α7GlyR Q79G G175K): 0.42 µM
EC50 (α7GlyR Y115F G175K): 5 µM
EC50 (α7GlyR W77F G175K): 0.57 µM
EC50 (α7^L131F-GlyR): 2.6 µM
EC50 (α7-5HT3 [3]): 0.92 µM
EC50 (α7GlyR G175K): 0.056 µM
EC50 (α7GlyR Y115F G175M): 14.1 µM
EC50 [4]: > 10 µM
EC50 [5]: > 30 µM
EC50 (α7GlyR Y115F G175S): 9.7 µM
EC50 (α7-GlyR^A298G): 0.25 µM
EC50 (α7GlyR W77F G175K Y210F): > 9 µM
EC50 [6]: > 30 µM
EC50 (α7^Q79G-5HT3): 0.91 µM
EC50 (α7^L131N-GlyR): 0.069 µM
